Experimental data as given in PMC12282092, “Discovery of a non-nucleoside inhibitor that binds to a novel site in the palm domain of the respiratory syncytial virus RNA-dependent RNA polymerase” (Journal of Virology, 2025).

By UniProt entry, the sequences of proteins in these tests, tags left out. Where a name states a change or a piece, a line headed by the entry shows the natural chain unless it says otherwise.
UniProt P28887: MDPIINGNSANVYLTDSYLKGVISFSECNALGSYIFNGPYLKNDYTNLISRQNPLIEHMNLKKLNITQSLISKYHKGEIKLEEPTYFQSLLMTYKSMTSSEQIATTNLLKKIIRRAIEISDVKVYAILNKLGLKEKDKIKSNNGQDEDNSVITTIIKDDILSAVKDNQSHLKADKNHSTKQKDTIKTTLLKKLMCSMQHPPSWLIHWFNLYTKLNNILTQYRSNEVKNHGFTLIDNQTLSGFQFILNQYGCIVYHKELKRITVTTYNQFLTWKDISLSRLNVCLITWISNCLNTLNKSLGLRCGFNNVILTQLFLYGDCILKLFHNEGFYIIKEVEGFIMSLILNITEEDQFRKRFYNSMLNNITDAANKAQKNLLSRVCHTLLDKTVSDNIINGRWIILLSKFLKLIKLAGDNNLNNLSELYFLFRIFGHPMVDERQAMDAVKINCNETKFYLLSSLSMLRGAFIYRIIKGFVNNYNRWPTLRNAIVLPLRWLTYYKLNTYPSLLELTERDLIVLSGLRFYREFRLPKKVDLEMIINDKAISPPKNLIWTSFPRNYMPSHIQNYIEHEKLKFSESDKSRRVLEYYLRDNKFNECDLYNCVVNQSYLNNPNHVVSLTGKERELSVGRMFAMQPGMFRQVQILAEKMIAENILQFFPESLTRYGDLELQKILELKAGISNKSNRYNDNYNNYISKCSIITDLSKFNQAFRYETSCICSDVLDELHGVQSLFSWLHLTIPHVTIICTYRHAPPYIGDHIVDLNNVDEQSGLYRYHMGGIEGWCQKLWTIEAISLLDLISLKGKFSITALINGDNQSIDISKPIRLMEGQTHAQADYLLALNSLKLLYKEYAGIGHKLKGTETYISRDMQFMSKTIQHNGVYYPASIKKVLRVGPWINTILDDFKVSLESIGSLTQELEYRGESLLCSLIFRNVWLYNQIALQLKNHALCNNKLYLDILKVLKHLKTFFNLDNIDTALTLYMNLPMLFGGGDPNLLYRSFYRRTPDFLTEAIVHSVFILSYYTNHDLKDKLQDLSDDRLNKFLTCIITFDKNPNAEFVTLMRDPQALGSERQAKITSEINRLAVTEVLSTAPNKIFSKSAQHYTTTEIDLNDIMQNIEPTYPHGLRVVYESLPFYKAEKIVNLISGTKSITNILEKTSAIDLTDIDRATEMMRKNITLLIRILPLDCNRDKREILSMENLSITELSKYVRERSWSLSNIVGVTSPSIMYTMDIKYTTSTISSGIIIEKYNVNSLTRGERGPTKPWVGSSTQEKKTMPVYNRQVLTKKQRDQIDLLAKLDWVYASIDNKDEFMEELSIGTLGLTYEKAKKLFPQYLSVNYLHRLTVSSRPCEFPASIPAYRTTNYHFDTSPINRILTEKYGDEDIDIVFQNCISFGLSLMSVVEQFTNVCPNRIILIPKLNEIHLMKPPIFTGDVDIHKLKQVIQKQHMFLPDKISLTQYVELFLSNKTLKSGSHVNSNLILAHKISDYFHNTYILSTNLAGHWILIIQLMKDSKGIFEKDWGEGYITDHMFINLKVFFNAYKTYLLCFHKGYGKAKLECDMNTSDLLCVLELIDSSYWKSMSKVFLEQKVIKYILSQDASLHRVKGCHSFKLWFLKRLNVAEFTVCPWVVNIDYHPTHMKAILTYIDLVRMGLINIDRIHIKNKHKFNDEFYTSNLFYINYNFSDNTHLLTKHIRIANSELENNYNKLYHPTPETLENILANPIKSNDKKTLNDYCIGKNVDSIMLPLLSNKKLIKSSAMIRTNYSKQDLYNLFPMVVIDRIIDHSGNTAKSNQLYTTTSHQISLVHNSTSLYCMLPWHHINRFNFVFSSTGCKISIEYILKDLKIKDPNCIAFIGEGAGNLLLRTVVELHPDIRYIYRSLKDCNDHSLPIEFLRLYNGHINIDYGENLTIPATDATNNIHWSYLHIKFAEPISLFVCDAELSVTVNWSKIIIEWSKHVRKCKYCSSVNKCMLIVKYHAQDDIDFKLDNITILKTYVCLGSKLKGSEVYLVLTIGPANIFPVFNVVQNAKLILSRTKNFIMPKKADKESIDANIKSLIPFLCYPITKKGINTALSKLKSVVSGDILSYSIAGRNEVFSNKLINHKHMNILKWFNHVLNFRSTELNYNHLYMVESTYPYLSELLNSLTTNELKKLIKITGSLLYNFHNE

What was measured:
[1] = target: T1, RSV L+P (Human respiratory syncytial virus A, UniProt P28887); assay: SPR assay; type: binding; details: read-out: SPR ka
T1 construct: Biochemical activity of 1 and 22 against full-length RSV L+P; Twin-Strep-tag (N); made in house; host or cells: Sf9 insect cells (baculovirus, pFastBac Dual)

[2] = target: T1, RSV L+P; assay: Single-nucleotide incorporation (primer extension) assays; type: biochemical; details: 50 µM 22, +1 and +3 positions
Experimental: A mixture of 0.2 µM RSV L+P, 0.2 µM RNA template (TrC-14), and 400 µM primer (sequences indicated in figure) was incubated in buffer consisting of 50 mM Tris pH 7.4, 2 mM DTT, and 6 mM MgCl2 with either 50 µM compound 22 or vehicle (5% DMSO) at 30°C for 10 min ([36]). Reactions were initiated by the addition of 100 nM [α-^32P]NTP (3,000 Ci/mmol) tracer and run for an additional 30 min before quenching with an equal volume of gel loading buffer (90% formamide, 50 mM EDTA, 0.05% Xylene Cyanol and Bromophenol Blue). Gel images were obtained and processed as described for the de novo assay, and data were normalized to untreated controls to determine percent inhibition.

CN1C(=O)C2(CCN(c3cnc(C#N)c(Cl)c3)CC2)c2cc(Br)ccc21 [Compound 22, 5-(5-bromo-1-methyl-2-oxospiro[indoline-3,4'-piperidin]-1'-yl)-3-chloropicolinonitrile]
kon [1]: 128000 M⁻¹ s⁻¹
inhibition of primer extension, Le-11 template [2]: inhibited primer extension
